According to publication PMC5368172:

Biological target: recombinant SCM, the M protein of Streptococcus canis (Streptococcus canis)
Experiment: SPR
Conditions: domain or fragment

human IgG-Fc
Kd: 123 nM
